PubChem AID 2061109: pyroptosis screen in mouse bone marrow macrophages, one dose (5 µM).
Target pathway: NLRP3 inflammasome, triggered by LPS and nigericin. Dead cells counted by propidium iodide.
Higher is more protection: 100% equals untreated cells, 0% the stimulated control, negative values set to 0. Active call (*): above 70%. Part of the library is listed.

SMILES	inhibition (%)
Cc1ccc([C@@H]2O[C@H](CO)[C@@H](O)[C@H](O)[C@H]2O)cc1Cc1ccc(-c2ccc(F)cc2)s1.Cc1ccc([C@@H]2O[C@H](CO)[C@@H](O)[C@H](O)[C@H]2O)cc1Cc1ccc(-c2ccc(F)cc2)s1.O	50.7
CCCc1c2oc(C(=O)O)cc(=O)c2cc2c(=O)cc(C(=O)O)n(CC)c12	0.0
CC(C)[C@H](O)C(=O)N[C@@H](C)C(=O)N[C@@H]1C(=O)N(C)c2ccccc2-c2ccccc21	34.6
CN(C)c1ccc2c(c1)OC(N)=C(C#N)C2c1cccc(C(F)(F)F)c1	0.0
NNCCc1ccccc1.O=S(=O)(O)O	0.0
O=C(O)C1CCCN1C(=O)OCc1ccccc1	30.4
CCOC(=O)[C@@H](Cc1cn(C)c2ccccc12)NC(=O)[C@@H](N)CC(C)C.Cl	0.0
CC(=O)N([C@H](C=O)CC(=O)O)[C@H](C(=O)NC(=O)[C@H](CCC(=O)O)NC(=O)[C@@H](N)CC(=O)O)C(C)C.CC(=O)O	22.6
Cc1ccc(NC(=O)[C@H]2CCCN(C(=O)c3c(C)cccc3F)[C@H]2c2ccc(NC3CCCC3)cc2)cc1C(F)(F)F	38.7
CCC(=C/[C@H](C)C/C=C/C(C)=C/[C@@H](C)C(=O)[C@@H](C)[C@H](O)[C@@H](C)C/C(C)=C/C(=O)O)/C=C/[C@@H]1OC(=O)C=C[C@@H]1C	0.0
COc1cc(F)c(F)c(Nc2ccc(I)cc2F)c1NS(=O)(=O)C1(C[C@H](O)CO)CC1	60.8
Cc1ccc2c(c1)C(=O)C1(O)CCN(c3ccccc3)C1=N2	11.9
COc1cccc([C@@H](C)NC(=O)c2ccc(-c3ccncc3)cc2)c1	38.9
O=C(CNC(=O)c1cccc2ccccc12)Nc1ccccc1Oc1ccccc1	82.7*
CCCc1cc(=O)c2ccccc2n1C	48.9
O=C1NCN(c2ccccc2)C12CCN(S(=O)(=O)c1ccc(Cl)s1)CC2	37.8
CN(C)c1ccc(C=C2C(=O)Nc3ccccc32)c2ccccc12	0.0
COC(=O)C=Cc1ccc(O)c(OC)c1	54.4
Cn1c(N2CCCCS2(=O)=O)nc(C(=O)NCc2ccc(F)cc2)c(O)c1=O	65.4
CC(C)(C)OC(=O)c1ccc(NC23CC4CC(CC(C4)C2)C3)c(N=Cc2cncnc2)c1	23.0
NCCO.O=C(Nc1ccc([N+](=O)[O-])cc1Cl)c1cc(Cl)ccc1O	0.0
C[C@]12CC[C@H]3[C@@H](CC[C@]4(O)C[C@@H](O)CC[C@]34C=O)[C@@]1(O)CC[C@@H]2C1=CC(=O)OC1	0.0
Fc1ccc(Cn2c(Cl)nc3ccccc32)cc1	0.0
Nc1ccc(-c2cccs2)cc1NC(=O)c1ccc2nc(N3CCNCC3)ccc2c1	67.5
C=C(C)C(=O)Nc1ccc(-c2c(-c3ccc(Oc4nccc(C)n4)c(F)c3)c3c(N)ncnc3n2C)cc1	0.0
C[C@]12C=CC(=O)N[C@@H]1CC[C@@H]1[C@@H]2CC[C@]2(C)[C@@H](C(=O)Nc3cc(C(F)(F)F)ccc3C(F)(F)F)CC[C@@H]12	0.0
CC(C)(C)COc1ccc(-n2cc(C(=O)O)cn2)cc1C#N	76.0*
COc1ccc2nc(S(=O)Cc3ncc(C)cc3C)[nH]c2c1	0.0
COc1cc(NC(=O)Cc2cccc(-n3c(=O)c4c(C)onc4c4c(Cl)cccc43)c2)cc(OC)c1OC	0.0
O=C(N[C@@H](CSSC[C@H](NC(=O)OCc1ccccc1)C(=O)O)C(=O)O)OCc1ccccc1	0.0
COCCOC1CCC(Nc2cc(=O)n(C)c3ccc(-c4cncs4)cc23)CC1	30.6
N#Cc1c(N)[nH]c2cc(/C=C/c3cccc(F)c3)ccc12	58.3
Cn1nc(C(C)(C)C)cc1C(=O)N[C@@H](Cc1cccc(Cl)c1)C(=O)NCC#N	78.4*
COc1cc2ncnc(N3CCN(C(=O)Nc4ccc([N+](=O)[O-])cc4)CC3)c2cc1OC	0.0
C[C@]12N[C@H](Cc3ccccc31)c1ccccc12	83.1*
C[C@H]1Oc2cc(cnc2N)-c2c(nn(C)c2C#N)CN(C)C(=O)c2ccc(F)cc21	0.0
C[C@]1(c2ncncc2F)NC(=O)c2cc(-c3cn[nH]c3)ccc21.O	0.0
CN(C)C/C=C/C(=O)Nc1cccc(-c2c(-c3ccccc3)oc3ncnc(N[C@H](CO)c4ccccc4)c23)c1	0.0
CC[C@@H]1/C=C(\C)C[C@H](C)C[C@H](OC)[C@H]2O[C@@](O)(C(=O)C(=O)N3CCCC[C@H]3C(=O)O[C@H](/C(C)=C/[C@@H]3CC[C@@H](O)[C@H](OC)C3)[C@H](C)[C@@H](O)CC1=O)[C@H](C)C[C@@H]2OC	0.0
C[C@H]1[C@H](C)CC[C@]2(C)CC[C@]3(C)C(=CC[C@@H]4[C@@]5(C)CC[C@@H](O)[C@](C)(C(=O)O)[C@@H]5CC[C@]43C)[C@H]12	56.1
CC1C(=O)NC2=Nc3cccc(Cl)c3CN21	52.9
Cc1cccn2c(=O)c3cc(C(=O)NCCCN4CCOCC4)c(=N)n(CCc4ccccc4)c3nc12	68.7
COc1ccc(F)cc1C(=O)NCc1ccc(-c2nn([C@@H](C)C(F)(F)F)c(N)c2C(N)=O)cc1	0.0
NS(=O)(=O)c1nn2cc(-c3ccccc3)nc2s1	0.0
Cc1ccc(C2CC(=O)NC(SCC(=O)Nc3nccs3)=C2C#N)cc1	60.0
O=C(O)CCCCCCCCCCCNC(=O)NC12CC3CC(CC(C3)C1)C2	64.4
O=c1nc2oc3ccccc3cc-2c(=O)[nH]1	6.0
c1ccc(-c2[nH]ncc2-c2ccnc3ccccc23)nc1	0.0
Cl.NCCCCCCNS(=O)(=O)c1cccc2ccccc12	0.0
C[C@H]1CCN1c1nc(N2C[C@@H]3C(CC(=O)O)[C@@H]3C2)cc(C(F)(F)F)n1	52.5
CC(C)(C)C(=O)NCCC1CCN(c2ncnc3cc(C(N)=O)sc23)CC1	0.0
Cc1c(C(C)C)c(=O)n(-c2ccccc2)n1C	79.8*
CCCCCCc1ccc(NC(=O)c2ccc([N+](=O)[O-])o2)cc1	0.0
Nc1nc(Cl)nc2c1ncn2[C@H]1C[C@H](O)[C@@H](CO)O1	3.4
Nc1ccc(-c2cnc(N)c(-c3ccc(Cl)cc3)c2)cn1	0.0
CC1=NNC(=O)C1=Cc1cn(-c2ccccc2)nc1-c1ccccc1	71.9*
O=C(N[C@@H](C1CC1)C(F)(F)F)c1cc(-c2cnn3cc(-c4ccc(F)cc4)cnc23)cs1	11.7
Cl.Cn1cc(-c2nc(N[C@@H]3CCCC[C@@H]3N)c(F)c3c2C(=O)NC3)cn1	26.2
CN1CC[C@@H](COC(=O)Nc2ccccc2-c2ccc(F)c(Cl)c2)C1	63.1
CC(=O)O.NCCC(=O)NCCc1ncc[nH]1.O=C(O)C(F)(F)F.O=C(O)C(F)(F)F	75.3*
N=c1c2c(-c3ccccc3)c(-c3ccccc3)n(Cc3ccccc3)c2ncn1C1CCC(O)CC1	0.0
CC(C)CC(NC(=O)C(Cc1ccccc1)NC(=O)c1cnccn1)B1OC2CC3CC(C3(C)C)C2(C)O1	27.8
CCCC(=O)N1CCCN(c2nc(N)c3cc(OC)c(OC)cc3n2)CC1.Cl	8.9
Cc1cc(C)nc(SCC(=O)Nc2ncc(Cc3cccc4ccccc34)s2)n1	26.7
C=CC(=O)N1CCC[C@@H](n2c(=O)n(-c3ccc(Oc4ccccc4)cc3)c3c(N)nccc32)C1	0.0
CC[C@@]1(c2ccccc2)C2=C(CC(C)(C)CC2=O)Nc2[nH]ncc21	48.5
CCOC(=O)c1ccc(NC2CCCCC2)c(NCc2ccccc2)c1	41.5
C#CCOc1ccc(Nc2nc(Nc3ccc(C)c(S(=O)(=O)NC(=O)CC)c3)ncc2F)cc1	6.2
CC(C)(C)OC(=O)N1CCN(C(=O)n2ncc(-c3ccc(OC(F)(F)F)cc3)n2)C(Cc2ccccc2)C1	0.0
[O-][n+]1cccc(-c2nc3c(Cl)cccc3cc2C(Nc2ncnc3cccnc23)C(F)(F)F)c1	0.0
N#Cc1ncccn1	0.0

Again, the opening 5 compounds:

SMILES | inhibition (%)
Cc1ccc([C@@H]2O[C@H](CO)[C@@H](O)[C@H](O)[C@H]2O)cc1Cc1ccc(-c2ccc(F)cc2)s1.Cc1ccc([C@@H]2O[C@H](CO)[C@@H](O)[C@H](O)[C@H]2O)cc1Cc1ccc(-c2ccc(F)cc2)s1.O | 50.7
CCCc1c2oc(C(=O)O)cc(=O)c2cc2c(=O)cc(C(=O)O)n(CC)c12 | 0.0
CC(C)[C@H](O)C(=O)N[C@@H](C)C(=O)N[C@@H]1C(=O)N(C)c2ccccc2-c2ccccc21 | 34.6
CN(C)c1ccc2c(c1)OC(N)=C(C#N)C2c1cccc(C(F)(F)F)c1 | 0.0
NNCCc1ccccc1.O=S(=O)(O)O | 0.0